{"sequences": {"note": "The chains behind the UniProt entries cited, without tags or fusion partners. Residues count along the entry.", "UniProt P05067, 672-711 limits assumed": "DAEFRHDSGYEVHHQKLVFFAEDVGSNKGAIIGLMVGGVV", "UniProt P05067, 672-713 limits assumed": "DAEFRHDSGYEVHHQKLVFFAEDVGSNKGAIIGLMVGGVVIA"}, "source": "patent US11759520B1", "about": "“Theranostics for protein misfolding diseases” (UNM Rainforest Innovations, priority 2018, dated 2023)", "key": {"Aβ40 fibrils [1]": {"target": "T1, Aβ40 fibrils (Homo sapiens, UniProt P05067)", "test": "Fluorescence sensing of Aβ40 fibrils over monomers (ADF, LOD)", "assay_type": "binding", "settings": "5 to 1 protein to sensor molar ratio", "description": "FIGS. 5A and B show the fluorescence profiles of ThT (20 μM) and OPE (1 μM) mixed with Aβ40 fibrils (5 μM) incubated in Tris pH 8.0 (A) or PB pH 7.4 (B) for various numbers of days.\nFIGS. 6A-6F provide the excitation and emission spectra of ThT, OPE, and OPE2+ alone and in the presence of Aβ40 monomers or Aβ40 fibrils incubated in the two different buffers. […] However, the small increase is noticeably less than the large fluorescent enhancement observed when the OPEs were mixed with Aβ40 fibrils.\nQuantitative assessment of OPE sensor performance towards A1340 fibrils at a 5 to 1 protein to sensor molar ratio was analyzed by calculating an amyloid detector factor using the equation shown in FIG. 13, where F(dye-in-buffer), F(dye+fibrils) and F(dye+monomers) are the integrated emission intensities for sensor alone, sensor in the presence of fibrils, and sensor in the presence of monomers, respectively. Using this equation, positive ADF values indicate selective sensing of fibrils over monomers, while negative ADF values indicate selective sensing of monomers. ADF values close to zero indicate no selective sensing."}, "Aβ42 peptide": {"target": "Aβ42 peptide (Homo sapiens, UniProt P05067)", "test": "Fluorescence spectra with unincubated (oligomeric) and incubated (fibrillar) Aβ42 peptide", "settings": "ThT 20 μM, OPE 1 μM, Aβ42 5 μM"}, "Aβ40 fibrils [2]": {"target": "T1, Aβ40 fibrils", "test": "Fluorescence sensing of Aβ40 fibrils over monomers (ADF, LOD)", "assay_type": "binding"}, "Aβ40 fibrils [3]": {"target": "T1, Aβ40 fibrils", "test": "Effect of oxidation on Aβ40 fibril morphology and secondary structure (TEM, CD)", "assay_type": "biochemical", "settings": "irradiated with photosensitizer"}, "Aβ40 monomers": {"target": "Aβ40 monomers (Homo sapiens, UniProt P05067)", "test": "Photo-oxidation of Aβ40 monomers (DNPH dot blot, RP-HPLC, MS, amino acid analysis)", "assay_type": "biochemical", "settings": "exposed to light, RP-HPLC and MS", "description": "To evaluate the potency of OPE to selectively photo-oxidize Aβ40 fibrils over the monomeric counterpart, the oxidation state of both Aβ40 fibrils and monomers were characterized and were compared to MB. The carbonyl content of the protein was monitored by DNPH dot blot, which increases as a result of histidine photooxidation.^20\nDNPH dot blot was carried out on Aβ40 fibrils and monomers incubated in the dark or under irradiation between 0 to 6 hours (FIGS. 9A and 9B). […] In the presence of both photosensitizers, OPE1− and MB, Aβ40 fibrils are characterized by an increase in the carbonyl content during irradiation (FIG. 9B, columns 5 and 8). Slightly higher carbonyl content in Aβ fibrils at time 0 h in the presence of MB could be due to short light exposure during sample preparation causing MB to photosensitize the oxidation of Aβ fibrils.\nTo confirm this observation, Aβ40 monomers were analyzed by reverse phase HPLC (RP-HPLC), mass spectrometry (MS), and amino acid analysis (FIGS. 10A and B), before and after irradiation in the presence of OPE1− and MB."}, "Aβ40 fibrils [4]": {"target": "T1, Aβ40 fibrils", "test": "Dissociation constant (binding affinity) for Aβ40 fibrils"}, "Aβ40 fibrils [5]": {"target": "T1, Aβ40 fibrils", "test": "Photo-oxidation of Aβ40 fibrils, DNPH dot blot carbonyl content", "assay_type": "biochemical"}, "[6]": {"settings": "Aβ40 fibrils produced in pH 7.4 PB"}, "[7]": {"settings": "Aβ40 fibrils produced in pH 8.0 Tris"}}, "note": "Read-outs that look alike come from different tables or passages of the source."}
{"smiles": "CCOC(=O)c1ccc(C#Cc2cc(OCCCS(=O)(=O)O)c(C#Cc3ccc(C(=O)OCC)cc3)cc2OCCCS(=O)(=O)O)cc1", "values": [{"measurement": "ADF (Amyloid Detection Factor), Aβ40 in PB", "setting": "Aβ40 fibrils [1]; [6]", "value": "2.3 +/− 0.3"}, {"measurement": "ADF (Amyloid Detection Factor), Aβ40 in Tris", "setting": "Aβ40 fibrils [1]; [7]", "value": "2.8 +/− 0.6"}, {"measurement": "fluorescence increase with fibrillar (incubated) Aβ42", "setting": "Aβ42 peptide", "value": "large fluorescence increases"}, {"measurement": "fluorescence increase with oligomeric (unincubated, prefibrillar) Aβ42", "setting": "Aβ42 peptide", "value": "small fluorescence increases"}, {"measurement": "LOD (Limit of Detection), Aβ40 in PB", "setting": "Aβ40 fibrils [2]; [6]", "value": "0.48 ± 0.02", "unit": "µM"}, {"measurement": "LOD (Limit of Detection), Aβ40 in Tris", "setting": "Aβ40 fibrils [2]; [7]", "value": "0.52 ± 0.04", "unit": "µM"}, {"measurement": "Aβ40 fibril morphology after irradiation (TEM)", "setting": "Aβ40 fibrils [3]", "value": "fibrils dissociated and broke into shorter structures"}, {"measurement": "Aβ40 fibril secondary structure after irradiation (CD)", "setting": "Aβ40 fibrils [3]", "value": "no change in the secondary is observed"}, {"measurement": "selectivity of photo-oxidation, Aβ40 fibrils vs monomers", "setting": "Aβ40 monomers", "value": "selectively oxidized Aβ40 fibrils"}, {"measurement": "Kd", "setting": "Aβ40 fibrils [4]; read-out: KD (Dissociation Constant), Aβ40 in PB, Aβ40 fibrils produced in pH 7.4 PB", "value": 270, "unit": "nM"}, {"measurement": "Kd", "setting": "Aβ40 fibrils [4]; read-out: KD (Dissociation Constant), Aβ40 in Tris, Aβ40 fibrils produced in pH 8.0 Tris", "value": 700, "unit": "nM"}, {"measurement": "carbonyl content of Aβ40 fibrils incubated in the dark", "setting": "Aβ40 fibrils [5]; dark, 0 to 6 hours", "value": "no change was observed"}, {"measurement": "carbonyl content of Aβ40 fibrils during irradiation", "setting": "Aβ40 fibrils [5]; irradiation 0 to 6 hours", "value": "increase in the carbonyl content"}]}
